For the assay, the target named is THP1 dual cell (Homo sapiens, UniProt Q8N697). Briefly: THP1 DUAL/ISRE cell reporter assay (R848 stimulated). As to the method:
CAL-1, THP1 or human primary cells were incubated with dTASL1 and other identified compounds (or the corresponding volume of DMSO vehicle) for 24 h or 48 h at the indicated concentration and subsequently stimulated with R848 (5 μg/ml) for the indicated time. Supernatant or cells were recovered for ELISA, SDS-PAGE or microscopy-based analysis.
THP1 DUAL cells (1×10^5 cells per 96 well) were incubated with compounds for 24 h or 48 h, and subsequently stimulated for 20 h as indicated. Cell culture supernatant were collected, cleared of residual cells by centrifugation and analyzed for NF-κB and ISRE reporter activity according to the manufacturer's instructions. For experiments in 384-well format, compounds were pre-plated at defined concentrations and THP1 dual cells were added at 800 k/well concentration in […]. After incubation for 24 h or 48 h cells were stimulated with […] of a 25 μg/ml stock of R848 or 0.5 μg/ml Pam3CKS4 5× stocks as indicated for 20 h and detected by directly adding Quanti-Luc Plus (Invivogen) solution to the plates, according to the manufacturer's instructions and without adding stabilizer solution. Quanti-Blue detection was carried out according to the manifacturers instructions, with QB reagent and buffer (Invivogen) dissolved in 30 ml water, instead of the 100 ml used for standard detection. […]

By UniProt entry, the sequences of proteins in these tests, tags left out.
UniProt Q8N697, whole entry: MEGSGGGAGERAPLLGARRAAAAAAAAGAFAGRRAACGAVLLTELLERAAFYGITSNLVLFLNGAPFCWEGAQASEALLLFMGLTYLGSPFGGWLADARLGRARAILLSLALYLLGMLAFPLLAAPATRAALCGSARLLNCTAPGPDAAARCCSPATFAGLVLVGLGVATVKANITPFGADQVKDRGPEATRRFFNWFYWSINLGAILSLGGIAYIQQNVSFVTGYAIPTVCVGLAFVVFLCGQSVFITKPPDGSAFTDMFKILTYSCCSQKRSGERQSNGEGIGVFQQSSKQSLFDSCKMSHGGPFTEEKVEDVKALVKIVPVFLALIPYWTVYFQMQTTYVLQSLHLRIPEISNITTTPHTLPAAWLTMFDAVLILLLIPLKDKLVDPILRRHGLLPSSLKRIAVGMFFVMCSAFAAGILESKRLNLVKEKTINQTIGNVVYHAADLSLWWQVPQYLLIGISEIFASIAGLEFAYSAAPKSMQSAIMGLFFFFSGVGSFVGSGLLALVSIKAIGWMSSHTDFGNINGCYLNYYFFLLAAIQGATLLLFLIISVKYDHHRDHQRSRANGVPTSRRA

The source of these data is patent US20260364088A1, “TASL MIMICKING MOLECULES AND APPLICATIONS THEREOF” (CEMM - FORSCHUNGSZENTRUM FÜR MOLEKULARE MEDIZIN GMBH, priority 2022, published 2026).

pIC50: −log10 of the molar value. Where two headings read alike, the source gives them in different places.

Turning to `CCOc1ccc(-c2cc(C(=O)NCCCN3CCC(C)CC3)c3ccccc3n2)cc1`, the pIC50 (read-out: IC50 24 h, 24 h treatment before R848 stimulation) is 5.05 and the pIC50 (read-out: IC50 48 h, 48 h treatment before R848 stimulation) was 5.55.
